This data set has as its target BCRP (Homo sapiens, UniProt Q9UNQ0).

Protein sequences, listed by entry. Tags and fused reporters are not part of them. Lines headed by an entry give the natural chain unless they say otherwise; changes in a name come on top.
UniProt Q9UNQ0: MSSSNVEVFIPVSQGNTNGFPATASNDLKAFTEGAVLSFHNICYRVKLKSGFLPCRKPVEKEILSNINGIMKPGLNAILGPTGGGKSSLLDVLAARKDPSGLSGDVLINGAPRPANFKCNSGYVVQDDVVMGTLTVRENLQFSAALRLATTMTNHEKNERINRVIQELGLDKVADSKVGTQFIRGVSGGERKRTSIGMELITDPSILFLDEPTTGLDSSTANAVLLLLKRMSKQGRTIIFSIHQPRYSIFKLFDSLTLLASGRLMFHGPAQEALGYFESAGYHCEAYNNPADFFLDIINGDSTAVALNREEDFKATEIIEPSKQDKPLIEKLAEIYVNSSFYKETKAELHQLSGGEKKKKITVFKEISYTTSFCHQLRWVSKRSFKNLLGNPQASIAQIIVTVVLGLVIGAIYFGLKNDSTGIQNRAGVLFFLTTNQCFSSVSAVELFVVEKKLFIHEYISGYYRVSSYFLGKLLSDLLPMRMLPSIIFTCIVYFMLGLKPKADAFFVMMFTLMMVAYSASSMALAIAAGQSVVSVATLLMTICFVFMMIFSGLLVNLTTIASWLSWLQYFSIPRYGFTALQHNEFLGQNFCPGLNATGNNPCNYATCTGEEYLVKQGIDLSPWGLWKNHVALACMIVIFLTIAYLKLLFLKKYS

As for LY335979, for the setting “1 µM”, the “Percentage of inhibition (BCRP)” value was -11.8%. For the setting “Caco-2”, the “Efflux ratio of E3S” value worked out at 22.2, the “Papp A-B of E3S” value is 3.96 ×10–^6 cm/s and the “Papp B-A of E3S” value was 87.9 ×10–^6 cm/s.

(Values after article PMC11211886 (Frontiers in Pharmacology, 2024).)
